Laboratory results from PubChem BioAssay AID743266 (National Center for Advancing Translational Sciences (NCATS), 2014).
Among all 410,000 compounds or so, about 310 (0.076%) were called active. The source calls these results inconclusive, neither active nor inactive. The call rests on the fitted dose curve; in most records, active means well fitted activation curve with a large enough effect; inconclusive means small, poorly fitted or top-dose-only effect, or another doubt; inactive means no such curve, though single readings can be large or run the other way.

Chains of the proteins cited; added tags and fusions are not shown. Lines headed by an entry give the natural chain unless they say otherwise; changes in a name come on top.
UniProt Q03431: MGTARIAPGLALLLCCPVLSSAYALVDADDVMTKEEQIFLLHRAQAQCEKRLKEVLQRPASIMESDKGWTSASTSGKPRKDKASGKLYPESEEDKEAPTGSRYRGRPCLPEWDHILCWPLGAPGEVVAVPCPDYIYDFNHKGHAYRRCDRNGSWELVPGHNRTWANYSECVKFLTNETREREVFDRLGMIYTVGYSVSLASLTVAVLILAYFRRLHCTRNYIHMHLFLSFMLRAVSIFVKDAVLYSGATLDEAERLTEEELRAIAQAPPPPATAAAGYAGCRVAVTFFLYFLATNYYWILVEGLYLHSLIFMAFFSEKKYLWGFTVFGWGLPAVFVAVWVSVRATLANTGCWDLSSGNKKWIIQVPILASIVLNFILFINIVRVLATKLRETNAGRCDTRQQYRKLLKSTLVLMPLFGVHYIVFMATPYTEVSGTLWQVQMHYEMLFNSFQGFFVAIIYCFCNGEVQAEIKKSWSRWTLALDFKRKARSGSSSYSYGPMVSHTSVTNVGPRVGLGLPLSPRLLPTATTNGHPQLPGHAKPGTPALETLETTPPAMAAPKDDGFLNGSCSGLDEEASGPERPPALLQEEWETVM

Molecular target: Parathyroid hormone/parathyroid hormone-related peptide receptor (Homo sapiens) (UniProt Q03431)
Test: qHTS for PTHR1 Agonists: Primary Screen; further: nearly all actives have a fitted effect of over 55% in size
Settings: HEK293 GP2 PTHR1 cells, GloSensor cAMP luminescence, 1 h; activation: at 57.5 µM (top of the series) unless noted
Potency means the concentration at half of the fitted maximal effect.

SMILES	Potency	activation
Cc1ccc(N/C(=N/P(=O)(N2CCOCC2)N2CCOCC2)N2CCOCC2)cc1	inconclusive: 44.7 µM	–
CCOC(=O)Nc1ccc([As](=O)(O)O)c(O)c1	–	inconclusive: 32.2% [at 115 µM]
O=C(OC1CN2CCC1CC2)C12CC3CC(CC(C3)C1)C2 (stereo unspecified)	inconclusive: 2.82 µM	–
O=[N+]([O-])c1ccc2c(c1)nnn2O	–	inconclusive: 64.6%
O=C(/C=C/c1ccccc1)OC1CN2CCC1CC2 (stereo unspecified)	inconclusive: 126 µM	–
Cc1ccc(S(=O)(=O)N(CCCN)CCCc2c(C)nc(N)[nH]c2=O)cc1	inconclusive: 3.98 µM	–
